Experimental data reported in article PMC3942423 (Nature chemical biology, 2009).

Substrate: OC[C@H]1O[C@H](O[C@@H]2[C@H](O)[C@@H](O)O[C@H](CO)[C@H]2O)[C@@H](O)[C@@H](O)[C@@H]1O
Experiment: purified protein, by the assay type
Conditions: other: most active mannobiose substrate; enzyme Bt3991; pH 7.0; 37.0 °C

B1: Bt3991 (Bacteroides thetaiotaomicron VPI-5482) (protein)
chain: MKLKTLLIGCFGGFIMLNSCTESPSVKDYSAYVNPFIGTGGHGHTFPGAVVPHGMIQPSPDTRIDGWDACSGYYYDDNTINGFSHTHVSGTGCCDYGDVLLMPTVGKPQYLTTDPESQKLAYASAFSHENETAEPGYYSVFLDTYQVKAEITATKRGAIHRYTFPESTESGFIIDLDYSLQRQTNYEMEIEVISDTEICGHKKTTYWAFDQYINFYAKFSKPFAYTLITDSVTMDNGKRLPVCKAVLHFNTKKDEEVLVKVGVSAVDIAGARKNVESEIPEWDFDKVRKDARTAWNNYLSKIDITTSDKEDKTIFYTALYHTAISPNLFTDADGRYLGMDLEVHQGDTINPLYTVFSLWDTFRALHPLMTIIDPNLNNQFINSLIRKHQEGGIYPMWDLASNYTGTMIGYHAVPVIVDAYMKGYRNFDAHEAYKASLRAAEYDTTGIKCPDLVLPHLMPKAKYYKNAIGYIPCDRENESVAKALEYAYDDWCISIFAEAMNDFENKAKYERFAKAYEFYFDKSTRFMRGLDSNGEWRTPFNPRASTHRSDDYCEGTAWQWTWFVPHDVEGLVKLMGGEDAFVEKLDSLFTVDSSLDGETTSADISGLIGQYAHGNEPSHHVIHLYNYVNRPWRTQELVDSVYRSQYANNVDGLSGNEDCGQMSAWYILNSMGFYQVCPGKPVYSIGRPAFDKAVINLPGEKTFSIVAKNNSKSNKYIESVLLNGKPLDTPFFGHQDIVAGGVMEIRMTDHPTQWGVRQ
kcat: 4.67 s⁻¹
kcat/Km: 517 M⁻¹ s⁻¹
